The data set relates to SKOV-3 ovarian cancer cell. Nature of the data set: In vitro cytotoxicity of dolastatin derivatives (PrestoBlue cell viability). In kind it is cell-based, Human. Conditions: SKOV-3, applied to cell culture medium. The protocol: Human ovarian cancer cell line SKOV-3 was from the ATCC (Manassas, Va., USA). The cells were grown according to the manufacturer's recommendations. Log phase cultures were collected and 5000 cells/well were seeded onto 96-well plates and incubated for 24 h. Serial dilutions of test molecules from a stock solution of 100 μM in 10% DMSO were made in cell culture medium, added to cells (maximum concentration of dimethylsulphoxide was 1%) and cultures were incubated further for 96 h. Cell viability was evaluated using PrestoBlue cell viability reagent (Life Technologies, Carlsbad, Calif., USA) according to the manufacturer's instructions. Cells were incubated for 2 h, and dye reduction was measured by absorbance at 570 nm. The compounds were assayed 1-2 times in triplicate.
Results of an exemplary assay are shown in FIG. 1, in which compound numbering is according to Example 1. The results are expressed in Table 1 as IC50 values of the analyzed derivatives.

With “N-(6-O-propargyl-D-galactosyl)-MMAF [Compound 3]”, the “cytotoxicity compared to 1 (MMAF)” value is given as “equally or only slightly less cytotoxic”.
Regarding “N-(6-azido-6-deoxy-D-galactosyl)-MMAF [Compound 4]”, the “cytotoxicity compared to 1 (MMAF)” value is “equally or only slightly less cytotoxic”.

Values taken from patent publication US10973922B2, “Glycoprotein-toxic payload conjugates” (GLYKOS FINLAND OY, priority 2013, dated 2021).
